# Test results published in patent US20210238308A1 (Chugai, published 2021).
# The chains behind the UniProt entries cited, without tags or fusion partners. A line that says so, or that is headed by a name, gives the form on record, which may keep a tag or linker. Residues count along the entry.
# UniProt P55899, 24-290 limits assumed, form in doubt, chain 1 of 2: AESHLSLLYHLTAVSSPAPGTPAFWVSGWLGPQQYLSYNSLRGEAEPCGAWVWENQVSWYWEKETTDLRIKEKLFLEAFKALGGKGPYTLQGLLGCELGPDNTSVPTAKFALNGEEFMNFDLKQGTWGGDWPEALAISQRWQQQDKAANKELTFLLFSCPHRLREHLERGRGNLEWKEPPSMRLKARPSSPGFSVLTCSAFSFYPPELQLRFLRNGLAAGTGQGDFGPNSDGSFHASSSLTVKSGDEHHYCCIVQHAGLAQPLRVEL
# B1: MRAH-G1d/MRAL-KT0 K439A (antibody, human IgG1, kappa)
# heavy: QVQLQESGPGLVRPSQTLSLTCTVSGYSITSDHAWSWVRQPPGRGLEWIGYISYSGITTYNPSLKSRVTMLRDTSKNQFSLRLSSVTAADTAVYYCARSLARTTAMDYWGQGSLVTVSSASTKGPSVFPLAPSSKSTSGGTAALGCLVKDYFPEPVTVSWNSGALTSGVHTFPAVLQSSGLYSLSSVVTVPSSSLGTQTYICNVNHKPSNTKVDKKV[human IgG1 Fc with K439A (EU numbers) omitted here]
# light: DIQMTQSPSSLSASVGDRVTITCRASQDISSYLNWYQQKPGKAPKLLIYYTSRLHSGVPSRFSGSGSGTDFTFTISSLQPEDIATYYCQQGNTLPYTFGQGTKVEIKRTVAAPSVFIFPPSDEQLKSGTASVVCLLNNFYPREAKVQWKVDNALQSGNSQESVTEQDSKDSTYSLSSTLTLSKADYEKHKVYACEVTHQGLSSPVTKSFNRGEC
# B2: MRAH-G1d/MRAL-KT0 T437V (antibody, human IgG1, kappa)
# heavy: QVQLQESGPGLVRPSQTLSLTCTVSGYSITSDHAWSWVRQPPGRGLEWIGYISYSGITTYNPSLKSRVTMLRDTSKNQFSLRLSSVTAADTAVYYCARSLARTTAMDYWGQGSLVTVSSASTKGPSVFPLAPSSKSTSGGTAALGCLVKDYFPEPVTVSWNSGALTSGVHTFPAVLQSSGLYSLSSVVTVPSSSLGTQTYICNVNHKPSNTKVDKKV[human IgG1 Fc with T437V (EU numbers) omitted here]
# light: B1 light
# B3: MRAH-G1d/MRAL-KT0 T437N (antibody, human IgG1, kappa)
# heavy: QVQLQESGPGLVRPSQTLSLTCTVSGYSITSDHAWSWVRQPPGRGLEWIGYISYSGITTYNPSLKSRVTMLRDTSKNQFSLRLSSVTAADTAVYYCARSLARTTAMDYWGQGSLVTVSSASTKGPSVFPLAPSSKSTSGGTAALGCLVKDYFPEPVTVSWNSGALTSGVHTFPAVLQSSGLYSLSSVVTVPSSSLGTQTYICNVNHKPSNTKVDKKV[human IgG1 Fc with T437N (EU numbers) omitted here]
# light: B1 light
# B4: MRAH-G1d/MRAL-KT0 T437E (antibody, human IgG1, kappa)
# heavy: QVQLQESGPGLVRPSQTLSLTCTVSGYSITSDHAWSWVRQPPGRGLEWIGYISYSGITTYNPSLKSRVTMLRDTSKNQFSLRLSSVTAADTAVYYCARSLARTTAMDYWGQGSLVTVSSASTKGPSVFPLAPSSKSTSGGTAALGCLVKDYFPEPVTVSWNSGALTSGVHTFPAVLQSSGLYSLSSVVTVPSSSLGTQTYICNVNHKPSNTKVDKKV[human IgG1 Fc with T437E (EU numbers) omitted here]
# light: B1 light
# B5: MRAH-G1d/MRAL-KT0 S440I (antibody)
# heavy: QVQLQESGPGLVRPSQTLSLTCTVSGYSITSDHAWSWVRQPPGRGLEWIGYISYSGITTYNPSLKSRVTMLRDTSKNQFSLRLSSVTAADTAVYYCARSLARTTAMDYWGQGSLVTVSSASTKGPSVFPLAPSSKSTSGGTAALGCLVKDYFPEPVTVSWNSGALTSGVHTFPAVLQSSGLYSLSSVVTVPSSSLGTQTYICNVNHKPSNTKVDKKV[human IgG1 Fc with S440I (EU numbers) omitted here]
# light: B1 light
# B6: MRAH-G1d/MRAL-KT0 K439D (antibody, human IgG1, kappa)
# heavy: QVQLQESGPGLVRPSQTLSLTCTVSGYSITSDHAWSWVRQPPGRGLEWIGYISYSGITTYNPSLKSRVTMLRDTSKNQFSLRLSSVTAADTAVYYCARSLARTTAMDYWGQGSLVTVSSASTKGPSVFPLAPSSKSTSGGTAALGCLVKDYFPEPVTVSWNSGALTSGVHTFPAVLQSSGLYSLSSVVTVPSSSLGTQTYICNVNHKPSNTKVDKKV[human IgG1 Fc with K439D (EU numbers) omitted here]
# light: B1 light
# B7: MRAH-G1d/MRAL-KT0 K439Q (antibody, human IgG1, kappa)
# heavy: QVQLQESGPGLVRPSQTLSLTCTVSGYSITSDHAWSWVRQPPGRGLEWIGYISYSGITTYNPSLKSRVTMLRDTSKNQFSLRLSSVTAADTAVYYCARSLARTTAMDYWGQGSLVTVSSASTKGPSVFPLAPSSKSTSGGTAALGCLVKDYFPEPVTVSWNSGALTSGVHTFPAVLQSSGLYSLSSVVTVPSSSLGTQTYICNVNHKPSNTKVDKKV[human IgG1 Fc with K439Q (EU numbers) omitted here]
# light: B1 light
# B8: MRAH-G1d/MRAL-KT0 K439S (antibody, human IgG1, kappa)
# heavy: QVQLQESGPGLVRPSQTLSLTCTVSGYSITSDHAWSWVRQPPGRGLEWIGYISYSGITTYNPSLKSRVTMLRDTSKNQFSLRLSSVTAADTAVYYCARSLARTTAMDYWGQGSLVTVSSASTKGPSVFPLAPSSKSTSGGTAALGCLVKDYFPEPVTVSWNSGALTSGVHTFPAVLQSSGLYSLSSVVTVPSSSLGTQTYICNVNHKPSNTKVDKKV[human IgG1 Fc with K439S (EU numbers) omitted here]
# light: B1 light
# B9: MRAH-G1d/MRAL-KT0 K439T (antibody, human IgG1, kappa)
# heavy: QVQLQESGPGLVRPSQTLSLTCTVSGYSITSDHAWSWVRQPPGRGLEWIGYISYSGITTYNPSLKSRVTMLRDTSKNQFSLRLSSVTAADTAVYYCARSLARTTAMDYWGQGSLVTVSSASTKGPSVFPLAPSSKSTSGGTAALGCLVKDYFPEPVTVSWNSGALTSGVHTFPAVLQSSGLYSLSSVVTVPSSSLGTQTYICNVNHKPSNTKVDKKV[human IgG1 Fc with K439T (EU numbers) omitted here]
# light: B1 light
# B10: MRAH-G1d/MRAL-KT0 S440G (antibody)
# heavy: QVQLQESGPGLVRPSQTLSLTCTVSGYSITSDHAWSWVRQPPGRGLEWIGYISYSGITTYNPSLKSRVTMLRDTSKNQFSLRLSSVTAADTAVYYCARSLARTTAMDYWGQGSLVTVSSASTKGPSVFPLAPSSKSTSGGTAALGCLVKDYFPEPVTVSWNSGALTSGVHTFPAVLQSSGLYSLSSVVTVPSSSLGTQTYICNVNHKPSNTKVDKKV[human IgG1 Fc with S440G (EU numbers) omitted here]
# light: B1 light
# B11: MRAH-G1d/MRAL-KT0 T437M (antibody, human IgG1, kappa)
# heavy: QVQLQESGPGLVRPSQTLSLTCTVSGYSITSDHAWSWVRQPPGRGLEWIGYISYSGITTYNPSLKSRVTMLRDTSKNQFSLRLSSVTAADTAVYYCARSLARTTAMDYWGQGSLVTVSSASTKGPSVFPLAPSSKSTSGGTAALGCLVKDYFPEPVTVSWNSGALTSGVHTFPAVLQSSGLYSLSSVVTVPSSSLGTQTYICNVNHKPSNTKVDKKV[human IgG1 Fc with T437M (EU numbers) omitted here]
# light: B1 light
# B12: MRAH-G1d/MRAL-KT0 Q438P (antibody, human IgG1, kappa)
# heavy: QVQLQESGPGLVRPSQTLSLTCTVSGYSITSDHAWSWVRQPPGRGLEWIGYISYSGITTYNPSLKSRVTMLRDTSKNQFSLRLSSVTAADTAVYYCARSLARTTAMDYWGQGSLVTVSSASTKGPSVFPLAPSSKSTSGGTAALGCLVKDYFPEPVTVSWNSGALTSGVHTFPAVLQSSGLYSLSSVVTVPSSSLGTQTYICNVNHKPSNTKVDKKV[human IgG1 Fc with Q438P (EU numbers) omitted here]
# light: B1 light
# B13: MRAH-G1d/MRAL-KT0 K439W (antibody, human IgG1, kappa)
# heavy: QVQLQESGPGLVRPSQTLSLTCTVSGYSITSDHAWSWVRQPPGRGLEWIGYISYSGITTYNPSLKSRVTMLRDTSKNQFSLRLSSVTAADTAVYYCARSLARTTAMDYWGQGSLVTVSSASTKGPSVFPLAPSSKSTSGGTAALGCLVKDYFPEPVTVSWNSGALTSGVHTFPAVLQSSGLYSLSSVVTVPSSSLGTQTYICNVNHKPSNTKVDKKV[human IgG1 Fc with K439W (EU numbers) omitted here]
# light: B1 light
# B14: MRAH-G1d/MRAL-KT0 S440Y (antibody)
# heavy: QVQLQESGPGLVRPSQTLSLTCTVSGYSITSDHAWSWVRQPPGRGLEWIGYISYSGITTYNPSLKSRVTMLRDTSKNQFSLRLSSVTAADTAVYYCARSLARTTAMDYWGQGSLVTVSSASTKGPSVFPLAPSSKSTSGGTAALGCLVKDYFPEPVTVSWNSGALTSGVHTFPAVLQSSGLYSLSSVVTVPSSSLGTQTYICNVNHKPSNTKVDKKV[human IgG1 Fc with S440Y (EU numbers) omitted here]
# light: B1 light
# B15: MRAH-G1d/MRAL-KT0 Q438W (antibody, human IgG1, kappa)
# heavy: QVQLQESGPGLVRPSQTLSLTCTVSGYSITSDHAWSWVRQPPGRGLEWIGYISYSGITTYNPSLKSRVTMLRDTSKNQFSLRLSSVTAADTAVYYCARSLARTTAMDYWGQGSLVTVSSASTKGPSVFPLAPSSKSTSGGTAALGCLVKDYFPEPVTVSWNSGALTSGVHTFPAVLQSSGLYSLSSVVTVPSSSLGTQTYICNVNHKPSNTKVDKKV[human IgG1 Fc with Q438W (EU numbers) omitted here]
# light: B1 light
# B16: MRAH-G1d/MRAL-KT0 K439E (antibody, human IgG1, kappa)
# heavy: QVQLQESGPGLVRPSQTLSLTCTVSGYSITSDHAWSWVRQPPGRGLEWIGYISYSGITTYNPSLKSRVTMLRDTSKNQFSLRLSSVTAADTAVYYCARSLARTTAMDYWGQGSLVTVSSASTKGPSVFPLAPSSKSTSGGTAALGCLVKDYFPEPVTVSWNSGALTSGVHTFPAVLQSSGLYSLSSVVTVPSSSLGTQTYICNVNHKPSNTKVDKKV[human IgG1 Fc with K439E (EU numbers) omitted here]
# light: B1 light
# B17: MRAH-G1d/MRAL-KT0 K439N (antibody, human IgG1, kappa)
# heavy: QVQLQESGPGLVRPSQTLSLTCTVSGYSITSDHAWSWVRQPPGRGLEWIGYISYSGITTYNPSLKSRVTMLRDTSKNQFSLRLSSVTAADTAVYYCARSLARTTAMDYWGQGSLVTVSSASTKGPSVFPLAPSSKSTSGGTAALGCLVKDYFPEPVTVSWNSGALTSGVHTFPAVLQSSGLYSLSSVVTVPSSSLGTQTYICNVNHKPSNTKVDKKV[human IgG1 Fc with K439N (EU numbers) omitted here]
# light: B1 light
# B18: MRAH-G1d/MRAL-KT0 Q438N (antibody, human IgG1, kappa)
# heavy: QVQLQESGPGLVRPSQTLSLTCTVSGYSITSDHAWSWVRQPPGRGLEWIGYISYSGITTYNPSLKSRVTMLRDTSKNQFSLRLSSVTAADTAVYYCARSLARTTAMDYWGQGSLVTVSSASTKGPSVFPLAPSSKSTSGGTAALGCLVKDYFPEPVTVSWNSGALTSGVHTFPAVLQSSGLYSLSSVVTVPSSSLGTQTYICNVNHKPSNTKVDKKV[human IgG1 Fc with Q438N (EU numbers) omitted here]
# light: B1 light
# B19: MRAH-G1d/MRAL-KT0 K439R (antibody, human IgG1, kappa)
# heavy: QVQLQESGPGLVRPSQTLSLTCTVSGYSITSDHAWSWVRQPPGRGLEWIGYISYSGITTYNPSLKSRVTMLRDTSKNQFSLRLSSVTAADTAVYYCARSLARTTAMDYWGQGSLVTVSSASTKGPSVFPLAPSSKSTSGGTAALGCLVKDYFPEPVTVSWNSGALTSGVHTFPAVLQSSGLYSLSSVVTVPSSSLGTQTYICNVNHKPSNTKVDKKV[human IgG1 Fc with K439R (EU numbers) omitted here]
# light: B1 light
# B20: MRAH-G1d/MRAL-KT0 K439G (antibody, human IgG1, kappa)
# heavy: QVQLQESGPGLVRPSQTLSLTCTVSGYSITSDHAWSWVRQPPGRGLEWIGYISYSGITTYNPSLKSRVTMLRDTSKNQFSLRLSSVTAADTAVYYCARSLARTTAMDYWGQGSLVTVSSASTKGPSVFPLAPSSKSTSGGTAALGCLVKDYFPEPVTVSWNSGALTSGVHTFPAVLQSSGLYSLSSVVTVPSSSLGTQTYICNVNHKPSNTKVDKKV[human IgG1 Fc with K439G (EU numbers) omitted here]
# light: B1 light
# Target: T1, human TRIM21 PRYSPRY domain with N-terminal 6xHis tag (human)
# T1 construct: Expressed from pET28a in E. coli; also called hTRIM21
# T1 chain: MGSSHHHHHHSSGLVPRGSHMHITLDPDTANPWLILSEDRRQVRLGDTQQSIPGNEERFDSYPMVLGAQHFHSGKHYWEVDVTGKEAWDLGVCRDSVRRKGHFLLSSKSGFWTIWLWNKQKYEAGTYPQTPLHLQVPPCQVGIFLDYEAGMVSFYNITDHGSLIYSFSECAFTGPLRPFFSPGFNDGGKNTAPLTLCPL
# Assay: SPR, Ab captured on Protein L, 100 nM hTRIM21
row,Binder,hTRIM21 binding level ratio (variant/control antibody)
1,B1,1.03
2,B2,0.19
3,B3,1.09
4,B4,1.19
5,B5,1
6,B6,1.15
7,B7,1.06
8,B8,1.02
9,B9,1.06
10,B10,0.945
11,B11,0.554
12,B12,0.419
13,B13,0.948
14,B14,1.08
15,B15,0.605
16,B16,1.09
17,B17,1.03
18,B18,0.564
19,B19,0.857
20,B20,1.12

# Target: T2, human FcRn (human, UniProt P55899, in part; P61769, in part)
# T2 construct: also called hFcRn
# Assay: SPR pH 6.0, Ab captured on Protein L, 1 uM hFcRn
row,Binder,hFcRn binding level ratio (variant/control antibody)
1,B1,0.91
2,B2,0.87
3,B3,0.95
4,B4,0.95
5,B5,0.92
6,B6,0.64
7,B7,0.94
8,B8,0.9
9,B9,0.91
10,B10,0.95
11,B11,0.91
12,B12,0.05
13,B13,0.08
14,B14,0.92
15,B15,0.96
16,B16,0.9
17,B17,0.91
18,B18,0.78
19,B19,0.92
20,B20,0.88
